Earlier results as cited in patent publication US20180272346A1, “MODULAR ORGAN MICROPHYSIOLOGICAL SYSTEM WITH MICROBIOME” (Massachusetts Institute of Technology, priority 2017, published 2018).

Legend:
[1] = test system: immune-competent liver MPS (hepatocytes and Kupffer cells); settings: cited from earlier work
liver MPS from LIVERCHIP = settings: scaled liver MPS from LIVERCHIP, in vitro; cited from earlier work

## O=C(O)Cc1ccccc1Nc1c(Cl)cccc1Cl [Diclofenac, diclofenac]
[1]
  liver functions: impaired
Liver MPS from LIVERCHIP
  diclofenac elimination rate constant: 5.66×10^−9 (cell*min)^−1
